Laboratory results as given in PMC6993238, “Development of a new class of PSMA radioligands comprising ibuprofen as an albumin-binding entity” (Theranostics, 2020).

Protein sequences, listed by entry. Tags and fused reporters are not part of them.
UniProt Q04609, whole entry: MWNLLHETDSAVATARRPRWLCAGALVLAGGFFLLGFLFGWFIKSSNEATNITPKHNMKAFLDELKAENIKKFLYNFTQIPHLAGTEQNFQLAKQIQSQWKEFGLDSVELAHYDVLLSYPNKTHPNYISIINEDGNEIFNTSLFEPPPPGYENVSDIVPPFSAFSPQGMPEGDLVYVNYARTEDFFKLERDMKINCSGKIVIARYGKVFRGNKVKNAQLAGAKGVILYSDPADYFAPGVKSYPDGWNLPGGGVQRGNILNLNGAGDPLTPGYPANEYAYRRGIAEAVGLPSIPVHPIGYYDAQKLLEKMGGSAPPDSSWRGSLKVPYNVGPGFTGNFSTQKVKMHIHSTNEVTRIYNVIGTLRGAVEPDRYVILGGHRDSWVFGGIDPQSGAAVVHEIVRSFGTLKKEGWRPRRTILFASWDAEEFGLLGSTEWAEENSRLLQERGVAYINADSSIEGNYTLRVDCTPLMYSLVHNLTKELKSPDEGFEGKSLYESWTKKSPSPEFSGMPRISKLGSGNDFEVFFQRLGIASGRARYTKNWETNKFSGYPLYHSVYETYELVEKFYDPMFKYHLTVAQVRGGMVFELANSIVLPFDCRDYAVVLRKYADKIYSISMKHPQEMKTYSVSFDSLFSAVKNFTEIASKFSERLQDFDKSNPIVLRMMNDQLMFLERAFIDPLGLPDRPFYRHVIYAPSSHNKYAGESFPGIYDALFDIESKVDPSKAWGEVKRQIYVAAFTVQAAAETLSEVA

Tests used:
[1] = n-octanol/PBS; cited from earlier work
[2] = system: mouse plasma proteins; assay: Ultrafiltration assay, binding to mouse plasma proteins; details: 37 °C, 30 min
Procedure: (§1) Plasma protein-binding properties of ^177Lu-Ibu-PSMA, ^177Lu-Ibu-Dα-PSMA, ^177Lu-Ibu-N-PSMA and ^177Lu-Ibu-DAB-PSMA as well as ^177Lu-PSMA-617 and ^177Lu-PSMA-ALB-56 were investigated using an ultrafiltration assay as previously reported. In short, the PSMA ligands were labeled with ^177Lu at a molar activity of 50 MBq/nmol, diluted in PBS (pH 7.4) to an activity concentration of 10 MBq/500 μL and incubated in mouse or human plasma at 37 °C for 30 min. After incubation, each sample was loaded on a centifree ultrafiltration device (4104 centrifugal filter units; Millipore, 30000 Da nominal molecular weight limit, methylcellulose micropartition membranes) and centrifuged at 2000 rpm for 40 min at 20 °C to allow the separation of the unbound and plasma-bound radioligand fractions. Samples from the loading solution and samples from the filtrate were taken and counted for radioactivity in a γ-counter. The amount of plasma-bound radioligand was calculated as the fraction of radioactivity measured […] relative to the corresponding loading solution (set to 100%). Control experiments were performed with each radioligand by incubation in PBS (pH 7.4) prior to filtration in order to determine the unspecific binding of the radioligands to the filter membrane. The experiments were performed at least three times for each radioligand. […]

[3] = biological target: PSMA (Homo sapiens, UniProt Q04609); assay: Determination of KD values (saturation binding on PC-3 PIP tumor cells); details: read-out: KD values, 30 min at 4 °C, 2-PMPA block for non-specific binding
Procedure: The KD values, indicating the PSMA-binding affinity of the radioligands, were determined using PC-3 PIP tumor cells. The cells were seeded in 48-well-plates (8 x 10^4 cells in 500 µL RPMI medium/well) allowing adhesion and growth overnight. During the experiment, well plates were kept on ice. After removal of the supernatant, the cells were washed once with ice-cold PBS (pH 7.4) before addition of different concentrations (1‒2000 nM) of the radiolabeled PSMA ligands (5 MBq/nmol) in ice-cold RPMI medium without supplements. Some of the PC-3 PIP tumor cell samples were co-incubated with 2-phosphonomethyl pentanedioic acid (2-PMPA, 200 μM) to block PSMA enabling the determination of non-specific binding. After incubation of the well-plates for 30 min at 4 °C, the supernatants were removed and the cells washed twice with ice-cold PBS. The cells were lysed (NaOH, 1 M, 600 µL) and transferred to 4 mL tubes for counting the activity in a γ-counter (Wallac Wizard 1480, Perkin Elmer). The KD values were determined by plotting specific binding (total binding minus unspecific binding determined with blocking agent) against the molar concentration of the added radioligands. […] Statistical significance was assessed using a one-way ANOVA with a Tukeys's multiple comparison post-test in GraphPad Prism software (version 7). […]

[4] = system: non-tumor-bearing athymic BALB/c nude mice; assay: In vivo excretion, whole-body activity measurement; details: 4 h p.i.; activity right after injection = 100%
Procedure: 14. Determination of the in vivo excretion of the radioligands
Methods: In order to determine the retention and excretion of each radioligand, non-tumor-bearing athymic BALB/c nude mice were injected with each radioligand (n = 2−3; per radioligand). The mice were measured for radioactivity immediately after injection and at several time points after injection up to 56 h p.i. (Figure S8). The PSMA ligands were, therefore, labeled at a molar activity of 25 MBq/nmol and diluted in saline containing 0.05% bovine serum albumin (BSA). Mice were intravenously injected with the respective radioligand (25 MBq, 1 nmol, 100 µL) and – after e mptying the urinary bladder – measured in a dose calibrator immediately (t = 0) and at various time points after injection up to 56 h p.i..
The activity measured right after injection was set as 100%. The data points present the average of three mice per radioligand ± standard deviation (SD). […]
to the albumin-binding properties of the incorporated ibuprofen. The ibuprofen-bearing radioligands […]
p-tolyl moiety as stronger albumin binder. […]
excretion patterns for the single radioligands, which was manifested most prominently between 1 h and 4 h p.i. At all measured time points, retention was highest for the radioligand without additional linker entity, 177Lu-Ibu-PSMA. […]
Figure S8. […] The activity measured right after injection was set as 100%. […]

[5] = system: human plasma proteins; assay: Ultrafiltration assay, binding to human plasma proteins; details: 37 °C, 30 min
Procedure: as §1

- binding to mouse plasma proteins (bound fraction) [2]: 89 ± 2%
- Kd [3]: 30 nM
- body retention of activity [4]: 51%
- binding to human plasma proteins (bound fraction) [5]: 95 ± 1%
SMILES: Cc1ccc(CCCC(=O)NCCCC[C@H](NC(=O)CN2CCN(CC(=O)O)CCN(CC(=O)O)CCN(CC(=O)O)CC2)C(=O)NCC2CCC(C(=O)N[C@@H](Cc3ccc4ccccc4c3)C(=O)NCCCC[C@H](NC(=O)N[C@@H](CCC(=O)O)C(=O)O)C(=O)O)CC2)cc1 (some centres unmarked)
- logD value [1]: -2.9
